HDAC3 inh – HDAC3 deacetylase inhibitors, primary screen, biochemical, fluorescence, cell-free homogeneous. inhibition, % at 8.3 µM. 320,000 compounds, 0.15% hits. AID 2718, 2010. recombinant HDAC3, fluorogenic peptide/trypsin coupled. Histone deacetylase 3 (Homo sapiens), O15379; in the data active = inhibition above about 26%, passing the limit was not always enough; inconclusive = no clear call, values can overlap the other calls
MC4R ag barr – MC4R agonists recruiting beta-arrestin, primary screen, cell-based, luminescence, agonist arm of biased-ligand search. U2OS MC4R beta-arrestin complementation; percent of melanotan II response, DMSO zero. activation, % at 8.9 µM. 360,000 compounds, 0.98% hits. AID 540308, 2011;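 active = activation above a per-plate cutoff, the mean activation of sample wells on that plate plus 3 SD, cut at about 8% in these data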
NALP1 inh – NALP1 inflammasome inhibitors in reconstituted yeast, colorimetric, S. cerevisiae, triplicate retest | S. cerevisiae NALP1/ASC/caspase-1 growth, X-gal OD620, 72 h | inhibition, % at 10 µM | 280,000 compounds, 0.61% hits; in the data active = inhibition mostly above about 24%, no sharp cut-off; inactive = mostly below about 32%
Yeast UUG start – modulators of start codon recognition fidelity in yeast; S. cerevisiae UUG-firefly luciferase reporter, luminescence/redox ratio; activity score, % at 18.7 µM; hit rate 0.13% among 350,000; AID 602363;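 active = replicate mean at a twofold rise or more, about +100% in these data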;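 note: firefly luciferase made from a UUG start codon reports start codon fidelity; reporter light over untreated wells divided by growth signal over untreated wells; some hits fall short of that in this replicate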
MC4R antag cAMP – MC4R antagonists of cAMP signaling, primary screen, cell-based, TR-FRET, antagonist arm of biased-ligand search. MC4R-expressing cells, MTII-stimulated cAMP, LANCE TR-FRET. inhibition, % at 6.5 µM. 360,000 compounds, 0.48% hits. AID 540295, 2011;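 active = inhibition above its plate's cutoff, the mean of tested wells on that plate plus 3 SD, cut at about 29% in these data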
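Assay system: U2OS-MC4R stable cell line; Also added: Melanotan II; Technique: Eu-cAMP/anti-cAMP TR-FRET, emission 671 nm; Times: 30-min compound, 1-h challenge, 1-h detection, room temperature.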
ALR H2O2 inh – blocks human ALR sulfhydryl oxidase activity | inhibition, % (test concentration not listed) | 3.8% of 290,000 active | AID 485317 | purified ALR, DTT oxidation, H2O2 HRP-luminol luminescence | P55789;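 active means mean and each replicate at 75% or more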;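 further: stock transfer was 7.5 nL into about 7.5 µL; 0% = neutral wells and 100% = wells with inactivated enzyme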
Hits are given with their value; . = inactive; ? = inconclusive; / = not tested or not shown. Most compounds without a hit are left out; they make up all but 4.2% or so of the library.

SMILES	HDAC3 inh	MC4R ag barr	NALP1 inh	Yeast UUG start	MC4R antag cAMP	ALR H2O2 inh
C[C@@H]1CN([C@@H](C)CO)C(=O)Cc2cc(NC(=O)C3CCCCC3)ccc2O[C@H]1CN(C)C(=O)Nc1ccc(F)cc1	/	/	/	.	/	/
Cc1cc(N2CCN(C)CC2)nc2ccc(NC(=O)c3ccccc3F)cc12	.	.	.	.	.	.
CCN1CCN(c2cc(C)c3cc(NC(=O)c4ccccc4F)ccc3n2)CC1	/	/	37	/	/	/
CC(C)NC(=O)Nc1ccc2c(c1)C(=O)N(C)[C@@H]1CC[C@H](CC(=O)NCC(F)(F)F)O[C@H]1CO2	/	/	/	.	/	/
C[C@H](CO)N1C[C@H](C)[C@@H](CN(C)C(=O)Nc2cccc3ccccc23)Oc2ccc(NC(=O)Nc3ccc4c(c3)OCO4)cc2CC1=O	/	/	/	.	/	/
c1coc(CSSCc2ccco2)c1	.	.	/	.	.	98
COc1ccc(C2NC(=S)NC3=C2CCCC3=C2SCCS2)cc1 (stereo unspecified)	?	.	.	.	.	.
S=C1NC2=C(CCCC2=C2SCCCS2)C(c2ccccc2)N1 (stereo unspecified)	43	.	.	/	.	.
CCN1CCCC1CNC(=O)CCc1nnc(CCC2CCCCC2)o1 (stereo unspecified)	.	.	.	.	.	100
CCn1cc(CNC(=O)CCc2nnc(CCC3CCCCC3)o2)cn1	.	.	.	/	.	.
CC1CN(c2ccc(NC(=S)Nc3ccc(N4CC(C)OC(C)C4)cc3)cc2)CC(C)O1 (stereo unspecified)	.	.	/	.	.	97
CC1CN(C(=S)Nc2ccc(Cl)cc2)CC(C)O1 (stereo unspecified)	.	.	.	.	.	.
CCC(=O)N(C)C[C@@H]1Oc2cc(C#CC3CCCC3)ccc2S(=O)(=O)N([C@H](C)CO)C[C@@H]1C	/	/	/	.	/	/
C#CCOC(=O)c1ccc(-n2cncn2)nc1	.	.	42	.	.	.
CCOC(=O)c1ccc(-n2cncn2)nc1	.	.	.	.	.	.
COc1ccc(NC2=NCCCCC2)cc1	.	.	.	.	.	.
COc1ccc(-c2nc(NC3=NCCCCC3)sc2C)cc1	.	.	.	/	.	98
C[C@@H]1CN([C@@H](C)CO)C(=O)c2cccc(NC(=O)c3cnccn3)c2O[C@H]1CN(C)C(=O)Nc1ccc(F)cc1	/	/	/	.	/	/
C=CCn1c(-c2csc(-c3ccccc3)n2)n[nH]c1=S	.	.	.	.	.	.
C=CCn1c(-c2ccc([N+](=O)[O-])cc2)n[nH]c1=S	.	.	.	.	.	.
C=CCn1c(-c2cc(-c3ccccc3)sc2N)n[nH]c1=S	.	.	.	.	.	93
C=CCn1c(-c2cccc(OC)c2)n[nH]c1=S	.	.	.	.	.	96
C=CCn1c(-c2cc(OC)c(OC)c(OC)c2)n[nH]c1=S	?	.	.	/	.	.
C=CCn1c(-c2ccccc2[N+](=O)[O-])n[nH]c1=S	.	.	.	/	.	89
COc1ccc(NC(=O)Nc2cccc3c2O[C@H](CN(C)S(=O)(=O)c2ccccc2)[C@@H](C)CN([C@@H](C)CO)C3=O)cc1	/	/	/	.	/	/
SMILES	HDAC3 inh	MC4R ag barr	NALP1 inh	Yeast UUG start	MC4R antag cAMP	ALR H2O2 inh
CCCNC(=O)N1C[C@H](O)COC[C@H]2O[C@H](CC(=O)N[C@H]3CCN(Cc4ccccc4)C3)CC[C@@H]21	/	/	/	.	/	/
Cc1cc(Cl)n2nc(C)c(-c3ccc(Cl)cc3)c2n1	.	.	.	.	.	.
Cc1cc(N)n2nc(C)c(-c3ccc(Cl)cc3)c2n1	.	.	33	/	.	/
O=C(CCCC1=NS(=O)(=O)c2ccccc2N1)N1CCN(c2ccc(Cl)cc2)CC1	.	.	.	.	.	96
O=C(CCCC1=NS(=O)(=O)c2ccccc2N1)N1CCN(c2ccccc2)CC1	.	.	.	.	.	.
CN(C)CCCn1c2c(c(SCC(=O)Nc3nccs3)nc1=O)CCC2	.	.	/	/	.	99
CN(C)CCn1c2c(c(SCC(=O)Nc3ccccc3)nc1=O)CCCC2	.	.	/	.	.	.
CCc1ccc(NC(=O)CSc2nc(=O)n(CCCN(C)C)c3c2CCC3)cc1	.	.	/	.	.	97
O=[N+]([O-])c1cccnc1N1CCN(c2ccc(F)cc2)CC1	.	.	.	/	.	98
COc1cccc2c(=O)n(CC(=O)N3CCCc4ccccc43)ccc12	.	.	.	.	.	/
CCOC(=O)COc1cccc2c(=O)n(CC(=O)N3CCCc4ccccc43)ccc12	.	.	.	.	.	97
COc1ccc(NC(=O)N(C)C[C@@H]2Oc3ccc(NS(=O)(=O)c4ccccc4)cc3C(=O)N([C@@H](C)CO)C[C@@H]2C)cc1	/	/	/	.	/	/
N#Cc1cccc(-c2ccc([C@H]3[C@H](CO)N4CCCCN(C(=O)Nc5ccc(F)cc5)C[C@@H]34)cc2)c1	/	/	/	.	/	/
N#C/C(=C\c1ccc([N+](=O)[O-])o1)c1nc2ccccc2[nH]1	.	/	101	/	/	.
Cc1ccc2nc(/C(C#N)=C\c3ccc([N+](=O)[O-])o3)[nH]c2c1	.	766	52	.	.	?
N#C/C(=C(/O)c1ccc([N+](=O)[O-])o1)c1nc2ccccc2[nH]1	.	.	/	/	.	/
C[C@H](CO)N1C[C@H](C)[C@@H](CN(C)C(=O)Nc2ccc3c(c2)OCO3)Oc2ccc(NC(=O)c3ccncc3)cc2CC1=O	/	/	/	.	/	/
COc1ccc(S(=O)(=O)Nc2c(C(=O)O)[nH]c3ccc(OC)cc23)cc1	.	.	.	.	.	98
COc1ccc2[nH]c(C(=O)O)c(NS(=O)(=O)c3ccc(OC)c(OC)c3)c2c1	.	.	.	.	.	/
O=c1c2cc3c(cc2[nH]c(=S)n1C1CCN(Cc2ccccc2)CC1)OCO3	.	.	.	.	.	93
COc1cccc(-c2cnc3c(c2)C(=O)N([C@H](C)CO)C[C@@H](C)[C@H](CN(C)C(C)=O)O3)c1	/	/	/	.	/	/
CCOc1ccc(S(=O)(=O)NNS(=O)(=O)c2ccc(C)cc2C)cc1	.	.	.	.	.	99
O=C(CSc1ccc(-c2ccco2)nn1)Nc1ccccc1	.	.	.	/	.	98
O=C(CSc1ccc(-c2ccco2)nn1)c1ccccc1	.	.	.	.	.	98
O=C(CSc1ccc(-c2ccco2)nn1)Nc1ccc(F)cc1	.	.	.	.	.	.
Cc1nnc(NC(=O)CSc2ccc(-c3ccco3)nn2)s1	.	.	.	/	.	97
COc1ccc(C(=O)CSc2ccc(-c3ccco3)nn2)cc1	.	.	.	.	.	?
CO[C@H]1CN(C)C(=O)c2ccc(NC(C)=O)cc2OC[C@H](C)N(C(=O)CN2CCOCC2)C[C@@H]1C	/	/	/	.	/	/

Screening data: PubChem BioAssay, several laboratories
